This assay addresses α1β3γ2 (Rattus norvegicus, UniProt P18508+P62813). Put plainly: biochemical.

By UniProt entry, the sequences of proteins in these tests, tags left out. Residues count along the entry.
UniProt P18508, 39-466: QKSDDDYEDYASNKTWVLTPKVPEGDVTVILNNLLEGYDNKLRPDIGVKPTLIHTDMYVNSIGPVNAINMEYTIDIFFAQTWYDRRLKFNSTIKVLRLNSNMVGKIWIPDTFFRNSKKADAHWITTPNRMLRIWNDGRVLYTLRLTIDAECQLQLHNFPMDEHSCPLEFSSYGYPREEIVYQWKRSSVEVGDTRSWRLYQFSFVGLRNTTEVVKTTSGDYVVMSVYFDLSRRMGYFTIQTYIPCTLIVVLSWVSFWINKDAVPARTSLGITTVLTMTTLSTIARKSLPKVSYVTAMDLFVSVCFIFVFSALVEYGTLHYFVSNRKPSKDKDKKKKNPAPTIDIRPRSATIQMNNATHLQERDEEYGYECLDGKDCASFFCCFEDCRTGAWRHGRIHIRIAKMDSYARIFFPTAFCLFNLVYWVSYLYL
UniProt P62813, 28-455: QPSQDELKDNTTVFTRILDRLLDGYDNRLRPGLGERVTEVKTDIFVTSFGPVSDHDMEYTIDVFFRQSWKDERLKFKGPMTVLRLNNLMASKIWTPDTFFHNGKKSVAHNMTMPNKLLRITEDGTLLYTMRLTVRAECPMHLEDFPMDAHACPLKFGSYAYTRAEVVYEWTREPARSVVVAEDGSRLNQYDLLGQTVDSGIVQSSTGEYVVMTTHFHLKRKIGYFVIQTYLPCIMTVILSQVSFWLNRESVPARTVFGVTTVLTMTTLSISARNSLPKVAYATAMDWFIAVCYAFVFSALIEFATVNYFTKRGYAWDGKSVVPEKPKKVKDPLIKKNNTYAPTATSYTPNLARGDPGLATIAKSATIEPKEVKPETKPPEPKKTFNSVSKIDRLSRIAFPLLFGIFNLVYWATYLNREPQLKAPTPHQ

SMILES strings stand for the structures.

Consider `CCOC(=O)c1ncn2c1CN(C)C(=O)c1cc(N=[N+]=[N-])ccc1-2` [[^3H]Ro 15-4513], for which the affinity, expressed as Kd, was 2.9 ± 0.3 nM.

For orientation: Kd means the free concentration of one partner at which half of the binding sites on the other are occupied at equilibrium, for simple one-to-one binding. A higher Kd goes with lower affinity.

(Values after paper PMC3137752 (Alcohol (Fayetteville, N.Y.), 2010).)
